Experimental data taken from article PMC7456963, “HPLC-Based Activity Profiling for Antiprotozoal Compounds in Croton gratissimus and Cuscuta hyalina” (Frontiers in Pharmacology, 2020).

Experiments:
[1] = system: L-6 cells (rat skeletal myoblasts); test: In vitro cytotoxicity with L-6 cells (resazurin); assay type: cell-based; details: L6 cells, 70 h + 2 h resazurin; mean ± absolute deviation
Protocol: Assays were performed in 96-well microtiter plates, each well containing 100 µl of RPMI 1640 medium supplemented with 1% L-glutamine (200 mM) and 10% fetal bovine serum, and 4000 L-6 cells (a primary cell line derived from rat skeletal myoblasts) ([Ahmed et al., 1994]). Serial drug dilutions of 11 three-fold dilution steps covering a range from 100 to 0.002 μg/ml were prepared 24 h post seeding L-6 cells. The plates were incubated for 70 h and inspected under an inverted microscope to assure growth of the controls and sterile conditions. 10 µl of resazurin was then added to each well and the plates incubated for another 2 h. Then the plates were read with a Spectramax Gemini XS microplate fluorometer (Molecular Devices Cooperation, Sunnyvale, CA, USA) using an excitation wavelength of 536 nm and an emission wavelength of 588 nm. The IC50 values were calculated by linear regression and four-parameter logistic regression from the sigmoidal dose inhibition curves using SoftmaxPro software (Molecular Devices Cooperation, Sunnyvale, CA, USA). Podophyllotoxin (Sigma P4405) was used as positive control. All assays were performed in two independent replicates at least. Activities of all compounds were expressed in µM using the formula: […]

[2] = system: mouse peritoneal macrophages; test: Cytotoxicity to macrophages determined in parallel to the intramacrophage assay; assay type: cell-based; details: surviving, uninfected mouse peritoneal macrophages, 96 h
Protocol: Macrophages were isolated from the mouse (CDI) peritoneal cavity ([Zhang et al., 2008]) using 2% starch solution as eliciting agent injected 2 day prior to cell harvest. Animal work was carried out according to the rules and regulations for the protection of animal rights (“Tierschutzverordnung”) of the Swiss “Bundesamt für Veterinärwesen” (License number 2374). Mouse peritoneal macrophages (4 × 10^4 in 100 µL RPMI 1640 medium with 10% heat-inactivated FBS) were seeded into wells of a 96-well plate. After 24 h, 2 × 10^5 amastigote L. donovani in 100 µL were added. The amastigotes were taken from an axenic amastigote culture grown at pH 5.4. The medium containing free amastigote forms was removed after 24 h and replaced with fresh medium. The washing step was repeated and afterward the serial drug dilution was prepared with at least 6 dilution steps. Compounds were dissolved in DMSO at 10 mg/ml and further diluted in medium. After 96 h of incubation at 37°C under a 5% CO2 atmosphere, the medium was removed, and cells were fixed by adding 50 µl 4% formaldehyde solution followed by a staining with a 5 µM DRAQ5 solution. […] The IC50 values were calculated based on the infection rate and the numbers of intracellular amastigotes. The cytotoxicity to macrophages was determined in parallel, and IC50 values were calculated based on the numbers of surviving, uninfected macrophages. […]

“(+)-(7S,7′S,8R,8′R)-Pinoresinol [Compound 10]” was tested, and the IC50 [1] was 242 ± 21.2 µM and the IC50 [2] was greater than 270 µM.
